The test system of one test is 12-week HFD-fed DIO mice. Briefly: Oral glucose tolerance test in DIO intervention study. It is filed as in vivo. Particulars: AM251 10 mg/kg oral gavage, 21 consecutive days, WT and CB2−/− DIO mice.
For test [1], the system named is epididymal CD11b+F4/80+ ATMs and CD11c+ M1 ATMs. The experiment in a line: Flow cytometry of epididymal adipose tissue macrophages in DIO intervention study. Format: in vivo, mice. (In flow cytometry, cells or beads pass a laser one at a time.)
The subject of test [2] is epididymal ATMs and M1 ATMs of CB2−/− DIO mice. Particulars: AM251 10 mg/kg oral gavage, 21 consecutive days.
The test system of the next test is DIO mice. Particulars: 4 weeks' treatment of DIO mice; cited from earlier work.
Setting [3] is: AM251 10 mg/kg oral gavage, 21 consecutive days, WT DIO mice.

With `Cc1c(C(=O)NN2CCCCC2)nn(-c2ccc(Cl)cc2Cl)c1-c1ccc(I)cc1` [AM251], the glucose tolerance result in the test with 12-week HFD-fed DIO mice is on record as “did not alter”. In addition, in test [1] (setting [3]), the “ATMs per gram of adipose tissue” value is “greater” and the “M1 ATMs per gram of adipose tissue” value is “greater”. Besides, in test [1] (AM251, 3-week treatment of DIO mice), the “abundance of CD11c+ ATMs in visceral adipose tissue” value is reported as “persistent abundance”. In test [2], the “ATMs per gram of adipose tissue greater after treatment” value was “not” and the “M1 ATMs per gram of adipose tissue greater after treatment” value was “not”. In addition, the adipose tissue inflammation entry in the test on DIO mice is “decreased”.

The record behind these values is patent US20210401805A1, “Immune CB1 Activation for Obesity Therapy” (University of South Carolina, priority 2020, published 2021).
